# Source: PubChem BioAssay AID1467 (National Center for Advancing Translational Sciences (NCATS), 2008)
# By UniProt entry, the sequences of proteins in these tests, tags left out.
# UniProt P06280, whole entry: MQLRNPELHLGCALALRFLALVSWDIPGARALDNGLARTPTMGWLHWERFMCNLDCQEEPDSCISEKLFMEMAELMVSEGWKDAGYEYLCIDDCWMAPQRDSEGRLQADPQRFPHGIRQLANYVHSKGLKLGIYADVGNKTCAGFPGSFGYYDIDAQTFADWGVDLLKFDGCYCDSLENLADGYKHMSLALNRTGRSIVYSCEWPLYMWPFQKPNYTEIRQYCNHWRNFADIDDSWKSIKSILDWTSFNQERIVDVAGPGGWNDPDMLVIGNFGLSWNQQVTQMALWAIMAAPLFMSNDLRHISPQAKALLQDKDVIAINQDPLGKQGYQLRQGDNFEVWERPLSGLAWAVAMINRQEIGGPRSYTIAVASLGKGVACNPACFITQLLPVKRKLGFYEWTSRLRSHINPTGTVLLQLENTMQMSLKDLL
# The list shows a part of the results, in another mix than the full data. Some structures show a salt or complex split into parts, the way the source records it. Calls of active or inactive are those of the source. Calls come from the whole dose curve; as a rule, active = well fitted curve in the direction sought with a large enough effect; inconclusive = small, poorly fitted or top-dose-only effect, or effect the other way, or another doubt; inactive = no such curve, though single readings can be large or run the other way.
# Target: Alpha-galactosidase A (Homo sapiens) (UniProt P06280)
# Assay: qHTS Assay for Inhibitors of Human alpha-Galactosidase at pH 4.5.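 Note: 0% = full activity with enzyme and -100% = basal without enzyme.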
# Settings: purified enzyme, 4-MU-alpha-Gal fluorescence; at 105 µM (top of the series)
# Source text: NIH Chemical Genomics Center [NCGC]
# NIH Molecular Libraries Probe Production centers Network [MLPCN]
# Assay Submitter (PI): Wei Zheng
# Alpha-galactosidase is a homodimeric glycoprotein that hydrolyzes the terminal alpha-galactosyl moieties from glycolipids and glycoproteins. Deficiency of this enzyme results in Fabry Disease with progressive accumulation of globotriaosylceramide and other glycosphingolipids in vascular endothelial cells that causes renal failure, myocardial infarction and stroke, and premature death in patients. It has been reported that the improper folding and trafficking of alpha-galactosidase resulting from the genetic mutations may account for a significant numbers of Fabry patients. […] We optimized this alpha-galactosidase assay in 1536-well plate format for identifying the novel small molecule inhibitors with the structures other than the sugar analogs in order to develop the new pharmacological chaperones. Although this assay has the same protocol as PubChem AID 992, this is a separate project and, therefore, is published as a separate assay
# NCGC Assay Protocol Summary:
# This is a fluorogenic enzyme assay with 4-Methylumbelliferyl alpha-D-galactopyranoside as the substrate and human […] as the enzyme preparation. Upon the hydrolysis of this fluorogenic substrate, the resulting product, […]. 4-Methyllumbelliferone, can be excited at 365 nm and emits at 440 nm. This fluorescence which can be detected by a standard fluorescence plate reader. Data were normalized to the controls for basal activity (without enzyme) and 100% activity (with enzyme). In the AC50 values were determined from concentration-response data modeled with the standard Hill equation.
# Assay buffer: 50 mM citric acid (titrated with potassium phosphate to pH 4.5), 0.005% Tween-20, pH 4.5. (pH 4.5 is an optimal condition for this enzyme assay)
# 1536-well assay protocol for the human alpha-galactosidase:
# (1) Add 2 ul/well of enzyme (12 nM final)
# (2) Add 23 nL compounds in DMSO solution. The final titration was 0.7 nM to 77 uM.
# (3) Add 1 ul of substrate (400 uM final)
# (4) Incubate at room temperature for 20 min.
# (5) Add 2 ul stop solution (1M NaOH and 1M Glycine mixture, pH 10)
# (6) Detect the assay plate in a ViewLux plate reader (PerkinElmer) with Ex=365 nm and Em=440nm.
# Keywords: MLSMR, MLPCN, NIH Roadmap, qHTS, NCGC, : Alpha-galactosidase, Fabry Disease, pharmacological chaperone, chaperone therapy
row,SMILES,"activity change, negative = inhibition"
1,O=[N+]([O-])c1cc([N+](=O)[O-])c(NCC2CCS(=O)(=O)C2)c([N+](=O)[O-])c1 (centres undefined),inactive: -20.5%
2,CN1CCN(CCOC(=O)C(O)(c2ccccc2)c2ccccc2)CC1,inactive: 1.28%
3,COc1ccc(NC2CCN(C(=O)OC(C)(C)C)CC2)cc1,inactive: 2.02%
4,O=C(NCC1(N2CCOCC2)CCCCC1)c1cc(=O)[nH]c2ccccc12,inactive: 0.484%
5,O=C(NCC1(N2CCCCC2)CCCCC1)c1cccc([N+](=O)[O-])c1,inactive: 2.51%
6,N#CC1(Nc2ccccc2)CCN(CCc2ccccc2)CC1,inactive: -0.814%
7,COc1ccc2c(c1O)-c1c(O)c(OC)cc3c1[C@H](C2)[N+](C)(C)CC3.O=[N+]([O-])c1cc([N+](=O)[O-])c([O-])c([N+](=O)[O-])c1[O-],inactive: -1.74%
8,O=C(OC1CN2CCC1CC2)c1ccc([N+](=O)[O-])cc1 (centres undefined),inactive: 0.548%
9,CN(C)c1cccc(C(=O)NCC2(N3CCCCC3)CCCCC2)c1,inactive: 2.24%
10,COc1ccc(CN(CCCl)CCCl)cc1Cl,inactive: 2.85%
11,CC(C)c1ccc(NC2CCN(C(=O)OC(C)(C)C)CC2)cc1,inactive: -12.8%
12,O=C(NCC1(N2CCOCC2)CCCCC1)c1cc2ccccc2o1,inactive: -13.7%
13,CCOC(=O)N1CCC(Nc2ccc(OC)cc2)CC1,inactive: -3.69%
14,N#CC1(Nc2ccccc2)CCN(Cc2ccccc2)CC1,inactive: -12.6%
15,O=C(OC1CN2CCC1CC2)C1c2ccccc2Oc2ccccc21 (centres undefined),inactive: -24.2%
16,COc1ccc(C(=O)NCC2(N3CCCCC3)CCCCC2)c(OC)c1OC,inactive: -3.12%
17,Cc1ccc(OCC(C)C)c(CN(CCCl)CCCl)c1,inactive: -4.5%

row,SMILES,"activity change, negative = inhibition"
1,CCOc1ccc(C)cc1CN(CCCl)CCCl,inactive: -6.2%
2,COc1ccc(NC2CCN(CCc3ccccc3)CC2)c(OC)c1,inactive: -3.17%
3,CCN1CCC(Nc2cccc(F)c2)CC1,inactive: -2.46%
4,CN(C)c1ccc(C(=O)NCC2(N3CCCCC3)CCCCC2)cc1,inactive: -1.51%
5,Fc1ccccc1NC1CCN(Cc2ccccc2)CC1,inactive: -3.12%
6,CCC(CO)(C(=O)OC1CN2CCC1CC2)c1ccccc1 (centres undefined),inactive: 7.2%
7,COc1cc(OC)cc(C(=O)NCC2(N3CCOCC3)CCCCC2)c1,inactive: 7.16%
8,CCCOc1ccc(C)cc1CN(CCCl)CCCl,inactive: -0.534%
9,CCOc1ncccc1C(=O)NCC1(N2CCOCC2)CCCCC1,inactive: 1.93%
10,CC(C)(C)OC(=O)N1CCC(Nc2ccccc2)CC1,inactive: -13%
11,N/C(=N\O)c1c(N)no[n+]1[O-],inactive: 4.58%
12,O=C(O)c1cccc(Nc2c([N+](=O)[O-])cc([N+](=O)[O-])cc2[N+](=O)[O-])c1,inactive: 0.931%
13,O=C(OC1CN2CCC1CC2)C1c2ccccc2C=Cc2ccccc21 (centres undefined),inactive: -11.8%
14,COc1ccc(C(=O)NCC2(N3CCOCC3)CCCCC2)cc1OC,inactive: -6.27%
15,c1ccc(CN2CCC(Nc3ccccc3)CC2)cc1,inactive: 0.129%
16,N#Cc1ccc(C(=O)NCC2(N3CCCCC3)CCCCC2)cc1,inactive: -2.33%
17,CCOC(=O)C(CC)C1=NC(C)(C)Cc2ccccc21.O=[N+]([O-])c1cc([N+](=O)[O-])c(O)c([N+](=O)[O-])c1 (centres undefined),inactive: -15.4%
